# Assay: Stability in acidic environment at 25° C. (half-life of initial microbiological activity)
# Assay type: physicochemical
# Details: aqueous solution, pH 4
# Protocol: The half life times of the initial activity of erythromycin A and of the macrolide antibiotics of the present invention in solution at several pH values are reported in the following table 1.
# Stability in acidic environnment at 25° C. of the novel
# Note: t 1/2 represents the time for reducing to one half the initial powe
# of the antibiotic determined by microbiological method through diffusion
# on a plate using the test stock Microccocus luteus (Sarcina lutea) ATCC
structure (smiles),measurement,value
"CC[C@H]1OC(=O)[C@H](C)[C@@H](O[C@H]2C[C@@](C)(OC)[C@@H](O)[C@H](C)O2)[C@H](C)[C@@H](O[C@@H]2O[C@H](C)C[C@H](N(C)C)[C@H]2O)[C@](C)(O)C[C@@H](C)C(=O)[C@H](C)[C@@H](O)[C@]1(C)O [Erythromycin A, reference compound]",half-life,2 h

# Source: patent US4439426A, “Semisynthetic macrolidic antibiotics, intermediate compounds for their preparation and related pharmaceutical compositions containing them” (priority 1981, dated 1984)
